This is an account of results in PubChem BioAssay AID1259313 (Sanford-Burnham Center for Chemical Genomics, 2017).

Molecules are shown by their SMILES. The entries are a selection whose mix differs from that of the whole data set. Active and inactive are the calls of the source.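 Rule for the calls: active = melting temperature shift of at least 10% of the positive control shift, at one fixed dose; inactive = the rest.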

This assay deals with Glutamate receptor ionotropic, NMDA 3A (GRIN3A) ligand-binding domain. The assay is described as follows: NR3A LBD thermal stabilization by compounds – biophysical, differential scanning fluorimetry, uHTS, primary screen (AID 1259313). Particulars: at 25 µM, hits give high values, 0% = protein alone, 100% = glycine-bound protein.
Take `CCC(=O)N(c1ccccc1)C1(COC)CCN(CCn2nnn(CC)c2=O)CC1`: the Tm shift relative to glycine control was inactive: 0.88%.

Take `CCC(=O)N(c1ccccc1)C1(COC)CCN(CCc2cccs2)CC1`: the Tm shift relative to glycine control is inactive: -0.4%.
